This passage reports Activity and EC50 results from ChEMBL document CHEMBL5518212, “Structure-Based Design of Novel G-Protein-Coupled Receptor TAAR1 Agonists as Potential Antipsychotic Drug Candidates” (J Med Chem, 2024).

Series [1] in a line: Toxicity in C57BL/6J mouse assessed as reduction in baseline locomotion at 3 mg/kg, po. It is filed as organism-based. As to conditions: in vivo.
Series [2] addresses T1, Trace amine-associated receptor 1 (Homo sapiens, UniProt Q96RJ0).
T1 sequence (Q96RJ0 whole entry): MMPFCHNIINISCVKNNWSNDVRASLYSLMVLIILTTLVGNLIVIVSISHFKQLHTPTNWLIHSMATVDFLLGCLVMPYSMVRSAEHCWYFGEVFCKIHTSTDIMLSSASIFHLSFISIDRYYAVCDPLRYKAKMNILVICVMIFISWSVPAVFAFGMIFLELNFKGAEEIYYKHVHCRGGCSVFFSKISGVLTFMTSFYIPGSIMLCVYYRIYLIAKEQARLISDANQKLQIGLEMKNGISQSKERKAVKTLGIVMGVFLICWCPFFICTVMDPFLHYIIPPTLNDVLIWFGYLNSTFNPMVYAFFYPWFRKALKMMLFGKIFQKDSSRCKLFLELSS
The experiment in a line: Agonist activity at Gs-mediated TAAR1 activation (unknown origin) expressed in HEK293 cells pretreated with coelenterazine for 30 mins followed by compound addition by BRET assay. It is filed as functional, cell-based.

Series [3] is described as follows: Toxicity in C57BL/6J mouse assessed as induction of catalepsy at 3 to 10 mg/kg, po measured at 30 to 60 mins. Type of series: organism-based. Conditions: in vivo, dose lower 3 mg/kg, time lower 30 min, dose upper 10 mg/kg, time upper 60 min.

The structures appear in SMILES notation. Where “and” joins values, the source holds several entries; their conditions need not be identical. Identical values can stand only once.

Broadly, the EC50 is the concentration giving half of the maximal effect.

Consider `CNC[C@@H]1OCCc2ccsc21` [ULOTARONT], for which the Activity result was “Toxic” in series [1] and “Non-Toxic” in series [3]. Further, the concentration giving a half-maximal response (EC50) in series [2] is 16.3 nM and 21.1 nM.
